## Apparent affinities of Ab-14 variants for a coronavirus HR2 peptide

Data: MIT Lincoln Laboratory AlphaSeq set, Engelhart et al. 2022, doi:10.1038/s41597-022-01779-4, as distributed in FLAb.

Target: peptide PDVDLGDISGINAS, taken from heptad repeat 2 (HR2) of SARS-CoV-2 spike.

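The starting antibody came from a phage panning campaign against this peptide. In library AAYL50, one, two or three CDR residues were substituted; doubles and triples were drawn at random. The scFvs were displayed on barcoded MATa yeast, the peptide on MATalpha yeast. Binding brings cells together so that they mate, and sequencing counts the barcode pairs among the diploids. Read counts were normalised to the haploid input and turned into Kd by a linear fit to BCL2-family pairs of known affinity, for each replicate. Each pool was mated in three replicate cultures.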

Parent scFv Ab-14: VH joined to VL by the linker GGGGSGGGGSGGGGS. Changes lie in the light chain CDRs alone.
VH: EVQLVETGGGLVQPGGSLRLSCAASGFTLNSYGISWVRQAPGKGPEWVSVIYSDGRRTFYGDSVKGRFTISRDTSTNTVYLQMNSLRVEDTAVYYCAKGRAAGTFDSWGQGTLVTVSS
VL: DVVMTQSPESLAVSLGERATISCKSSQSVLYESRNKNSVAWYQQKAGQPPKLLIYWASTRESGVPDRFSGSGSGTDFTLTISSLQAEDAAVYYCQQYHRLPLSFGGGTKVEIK

Changes read parent residue, position, new residue, counted from the first residue of the VL shown.
Every variant below is changed at S103 of the VL (sequential numbering).
Scale: log10 of Kd in nM, estimated from mating counts; low values are strong binders.
A pair that was not seen in that replicate is written "nd"; this usually means weak binding, but a binder can also be missed.
For reference, the parent read 0.65 as the reference entry and 1.68 as a member of this library.

For K24D+S103V, the assay gave 0.72, 0.87, 1.11. For Y31Q+S58W+S103I, the assay gave 4.67, 2.55, nd. The variant W56G+T59C+S103R showed 0.35, 0.62, 0.45. With S26E+Q27M+S103M the result was 0.97, 0.93, 1.01. The variant E32M+R99M+S103F showed 3.78, 4.22, 3.74. With L30N+N35I+S103Y the result was 3.91, 2.35, 2.73. With N37F+T59L+S103G the result was 4.29, nd, nd.

For K36G+A57C+S103Y, the assay gave nd, nd, nd. The variant H98M+S103G showed 1.16, 1.38, 1.39. For E32R+S33D+S103E, the assay gave 2.02, 1.85, 2.21. For Q95W+Y97K+S103D, the assay gave nd, nd, nd. With V29D+L30S+S103T the result was 0.49, 0.62, 0.72. The variant R60G+L100G+S103F showed nd, nd, nd. The variant E32V+S58E+S103P showed 2.53, 2.54, 2.61.

The variant N35A+S103W showed 0.97, 1.05, 1.03. The variant Q27C+V29C+S103Q gave 2.28, 3.03, 2.17. The variant S38G+T59C+S103A showed 2.45, 3.86, nd. The variant N35T+Q96M+S103P gave nd, 4.32, nd. With S33R+S58N+S103L the result was 2.09, 2.00, 1.91. With V29N+E61I+S103M the result was 1.11, 1.38, 1.53. The variant V29W+P101Q+S103E showed nd, nd, nd.

For N37W+S103V, the assay gave 1.61, 1.74, 1.97. The variant Y97E+H98F+S103V showed nd, nd, nd. With K24W+N35M+S103L the result was nd, 4.57, 4.27. The variant Q95A+S103K showed 3.29, nd, nd. The variant K24P+S103Q showed nd, 4.53, 3.64. The variant V29E+P101V+S103A gave nd, nd, nd. For K24V+Y97Q+S103R, the assay gave nd, nd, nd.

For S28T+L100A+S103M, the assay gave nd, nd, nd. For Q27K+L100F+S103H, the assay gave 1.33, 1.51, 1.68. For S58L+S103E, the assay gave nd, 3.61, 3.68. With S25D+S62E+S103G the result was 0.50, 0.96, 0.87. For A40H+H98M+S103D, the assay gave nd, nd, nd. The variant A40F+S62W+S103F gave nd, nd, nd. The variant E32I+H98A+S103R showed 3.79, 3.07, 4.82.

With W56F+L100S+S103K the result was 1.15, 1.02, 1.58. For S33K+Y97W+S103W, the assay gave 4.73, 3.32, nd. With V39T+Q95M+S103C the result was nd, nd, nd. The variant S25R+H98P+S103L gave 1.63, 1.66, 1.87. With N37E+R99K+S103G the result was 2.83, 1.82, 2.00. For S26D+P101Q+S103A, the assay gave 1.48, 1.73, 1.73. The variant Q95W+L100A+S103D gave nd, 4.89, nd.

The variant K24T+S28M+S103F gave 4.50, 3.29, nd. With S25D+E32D+S103F the result was 2.26, 2.18, 2.13. For H98F+P101S+S103Y, the assay gave 0.62, 0.83, 0.85. With R34L+N35V+S103A the result was 2.28, 2.22, 2.05. The variant N35E+Q95A+S103W gave 3.56, 3.34, 4.48. The variant A57R+S58N+S103Y showed nd, nd, nd.

Background: pairings of library AAYL50 with three empty control strains gave a value in 18% of cases (median 4.19, 5th percentile 2.99). Values in that range, when seen in few replicates, are hard to tell from nonspecific mating.